Experimental data taken from patent US11717508B2, “Compounds, compositions, and methods for inhibiting bacterial growth” (priority 2016, dated 2023).
Like-named read-outs stand apart in the source and are kept apart here.

Tested on: CDC1551(ΔdosR) mutant
Format: cell-based

## C[C@@H]1CC[C@H]2[C@@H](C)C(=O)O[C@@H]3O[C@]4(C)CC[C@@H]1[C@]32OO4 [HC101A, artemisinin, reference compound]
Gene MT0169 Rv0160c PE, HC101A vs DMSO
  DosR DMSO/DosR HC101A Fold change: 0.3769
Gene MT0258 Rv0244c fadE5, HC101A vs DMSO
  DosR DMSO/DosR HC101A Fold change: 0.4765
Gene MT0273 Rv0260c, HC101A vs DMSO
  DosR DMSO/DosR HC101A Fold change: 0.2767
Gene MT0292 Rv0280 PPE, HC101A vs DMSO
  DosR DMSO/DosR HC101A Fold change: 0.4213
Gene MT0329 Rv0315, HC101A vs DMSO
  DosR DMSO/DosR HC101A Fold change: 0.4217
Gene MT0456 Rv0440 groEL2, HC101A vs DMSO
  DosR DMSO/DosR HC101A Fold change: 0.4219
Gene MT0468 Rv0452, HC101A vs DMSO
  DosR DMSO/DosR HC101A Fold change: 2.609
Gene MT0483 Rv0467 aceA, HC101A vs DMSO
  DosR DMSO/DosR HC101A Fold change: 0.3537
Gene MT0484, HC101A vs DMSO
  DosR DMSO/DosR HC101A Fold change: 0.4124
Gene MT0493 Rv0475, HC101A vs DMSO
  DosR DMSO/DosR HC101A Fold change: 0.4739
Gene MT0530 Rv0509 hemA, HC101A vs DMSO
  DosR DMSO/DosR HC101A Fold change: 2.042
Gene MT0531 Rv0510 hemC, HC101A vs DMSO
  DosR DMSO/DosR HC101A Fold change: 2.374
Gene MT0532 Rv0511 cysG, HC101A vs DMSO
  DosR DMSO/DosR HC101A Fold change: 2.326
Gene MT0533 Rv0512 hemB, HC101A vs DMSO
  DosR DMSO/DosR HC101A Fold change: 2.422
Gene MT0583 Rv0557, HC101A vs DMSO
  DosR DMSO/DosR HC101A Fold change: 2.162
Gene MT0586 Rv0560c, HC101A vs DMSO
  DosR DMSO/DosR HC101A Fold change: 3.863
Gene MT0658 Rv0630c recB, HC101A vs DMSO
  DosR DMSO/DosR HC101A Fold change: 2.029
Gene MT0705 Rv0676c mmpL5, HC101A vs DMSO
  DosR DMSO/DosR HC101A Fold change: 3.683
Gene MT0706 Rv0677c mmpS5, HC101A vs DMSO
  DosR DMSO/DosR HC101A Fold change: 3.164
Gene MT0706.1 Rv0678, HC101A vs DMSO
  DosR DMSO/DosR HC101A Fold change: 2.974
Gene MT0772.5 Rv0747 PE_PGRS, HC101A vs DMSO
  DosR DMSO/DosR HC101A Fold change: 2.06
Gene MT0808 Rv0784, HC101A vs DMSO
  DosR DMSO/DosR HC101A Fold change: 4.335
Gene MT0901 Rv0878c PPE, HC101A vs DMSO
  DosR DMSO/DosR HC101A Fold change: 0.484
Gene MT0908 Rv0885, HC101A vs DMSO
  DosR DMSO/DosR HC101A Fold change: 0.09476
Gene MT0909 Rv0886 fprB, HC101A vs DMSO
  DosR DMSO/DosR HC101A Fold change: 0.1128
Gene MT0911 Rv0888, HC101A vs DMSO
  DosR DMSO/DosR HC101A Fold change: 0.3301
Gene MT0915.1, HC101A vs DMSO
  DosR DMSO/DosR HC101A Fold change: 0.4347
Gene MT0956 Rv0929 pstC2, HC101A vs DMSO
  DosR DMSO/DosR HC101A Fold change: 2.052
Gene MT1019 Rv0990c, HC101A vs DMSO
  DosR DMSO/DosR HC101A Fold change: 0.4244
Gene MT1020, HC101A vs DMSO
  DosR DMSO/DosR HC101A Fold change: 0.4173
Gene MT1073 Rv1043c, HC101A vs DMSO
  DosR DMSO/DosR HC101A Fold change: 2.098
Gene MT1123 Rv1091 PE_PGRS, HC101A vs DMSO
  DosR DMSO/DosR HC101A Fold change: 2.021
Gene MT1224 Rv1187 rocA, HC101A vs DMSO
  DosR DMSO/DosR HC101A Fold change: 0.4905
Gene MT1233 Rv1195 PE, HC101A vs DMSO
  DosR DMSO/DosR HC101A Fold change: 0.3447
Gene MT1296 Rv1257c, HC101A vs DMSO
  DosR DMSO/DosR HC101A Fold change: 2.295
Gene MT1297 Rv1258c, HC101A vs DMSO
  DosR DMSO/DosR HC101A Fold change: 3.349
Gene MT1303 Rv1265, HC101A vs DMSO
  DosR DMSO/DosR HC101A Fold change: 2.191
Gene MT1385, HC101A vs DMSO
  DosR DMSO/DosR HC101A Fold change: 0.3008
Gene MT1424 Rv1380 pyrB, HC101A vs DMSO
  DosR DMSO/DosR HC101A Fold change: 2.37
Gene MT1425 Rv1381 pyrC, HC101A vs DMSO
  DosR DMSO/DosR HC101A Fold change: 2.26
Gene MT1426, HC101A vs DMSO
  DosR DMSO/DosR HC101A Fold change: 2.443
Gene MT1427 Rv1383 car A, HC101A vs DMSO
  DosR DMSO/DosR HC101A Fold change: 2.007
Gene MT1428 Rv1384 carB, HC101A vs DMSO
  DosR DMSO/DosR HC101A Fold change: 2.166
Gene MT1429 Rv1385 pyrF, HC101A vs DMSO
  DosR DMSO/DosR HC101A Fold change: 2.871
Gene MT1430 Rv1386 PE, HC101A vs DMSO
  DosR DMSO/DosR HC101A Fold change: 0.4983
Gene MT1431 Rv1387 PPE, HC101A vs DMSO
  DosR DMSO/DosR HC101A Fold change: 0.4348
Gene MT1484 Rv1439c, HC101A vs DMSO
  DosR DMSO/DosR HC101A Fold change: 0.3515
Gene MT1585.1, HC101A vs DMSO
  DosR DMSO/DosR HC101A Fold change: 0.2117
Gene MT1586 Rv535 Rv1535, HC101A vs DMSO
  DosR DMSO/DosR HC101A Fold change: 0.255
Gene MT1620 Rv1569 bioF, HC101A vs DMSO
  DosR DMSO/DosR HC101A Fold change: 2.269
Gene MT1627, HC101A vs DMSO
  DosR DMSO/DosR HC101A Fold change: 0.4203
Gene MT1628 Rv1592c, HC101A vs DMSO
  DosR DMSO/DosR HC101A Fold change: 0.4323
Gene MT1736, HC101A vs DMSO
  DosR DMSO/DosR HC101A Fold change: 0.4867
Gene MT1775, HC101A vs DMSO
  DosR DMSO/DosR HC101A Fold change: 0.4957
Gene MT1836 Rv1787 PPE, HC101A vs DMSO
  DosR DMSO/DosR HC101A Fold change: 3.598
